Laboratory results published in ChEMBL document CHEMBL2163301, “Substrates for efficient fluorometric screening employing the NAD-dependent sirtuin 5 lysine deacylase (KDAC) enzyme” (J Med Chem, 2012).

Chains of the proteins cited; added tags and fusions are not shown. Lines headed by an entry give the natural chain unless they say otherwise; changes in a name come on top.
UniProt Q9NXA8: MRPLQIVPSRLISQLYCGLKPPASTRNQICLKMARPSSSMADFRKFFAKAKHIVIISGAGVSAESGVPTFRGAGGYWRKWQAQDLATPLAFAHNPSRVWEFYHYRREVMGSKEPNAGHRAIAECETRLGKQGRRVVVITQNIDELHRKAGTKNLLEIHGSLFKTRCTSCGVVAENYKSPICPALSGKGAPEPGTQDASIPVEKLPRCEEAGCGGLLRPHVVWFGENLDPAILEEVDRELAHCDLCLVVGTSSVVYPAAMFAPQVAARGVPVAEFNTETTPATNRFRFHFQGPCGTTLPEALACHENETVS

Molecular target: NAD-dependent protein deacylase sirtuin-5, mitochondrial (Homo sapiens, UniProt Q9NXA8)
Experiment: Inhibition of SIRT5
Summary of the method: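 Recombinant SIRT5 at 50 ng/well (~30 nM, 50 μL) with succinyllysine AMC substrate and NAD in Tris-Cl pH 8.0/BSA buffer. Inhibitor dilutions were prepared in assay buffer from DMSO stocks. IC50 from nonlinear regression of dose–response, two assays in duplicate.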

pIC50: < 4.00
SMILES: CCCC(CCC)C(=O)O [VALPROIC ACID]

pIC50: −log10 of the molar value.
